# Measurements taken from PubChem BioAssay AID504339 (National Center for Advancing Translational Sciences (NCATS), 2011).
# Chains of the proteins cited; added tags and fusions are not shown. Lines headed by an entry give the natural chain unless they say otherwise; changes in a name come on top.
# UniProt O75164: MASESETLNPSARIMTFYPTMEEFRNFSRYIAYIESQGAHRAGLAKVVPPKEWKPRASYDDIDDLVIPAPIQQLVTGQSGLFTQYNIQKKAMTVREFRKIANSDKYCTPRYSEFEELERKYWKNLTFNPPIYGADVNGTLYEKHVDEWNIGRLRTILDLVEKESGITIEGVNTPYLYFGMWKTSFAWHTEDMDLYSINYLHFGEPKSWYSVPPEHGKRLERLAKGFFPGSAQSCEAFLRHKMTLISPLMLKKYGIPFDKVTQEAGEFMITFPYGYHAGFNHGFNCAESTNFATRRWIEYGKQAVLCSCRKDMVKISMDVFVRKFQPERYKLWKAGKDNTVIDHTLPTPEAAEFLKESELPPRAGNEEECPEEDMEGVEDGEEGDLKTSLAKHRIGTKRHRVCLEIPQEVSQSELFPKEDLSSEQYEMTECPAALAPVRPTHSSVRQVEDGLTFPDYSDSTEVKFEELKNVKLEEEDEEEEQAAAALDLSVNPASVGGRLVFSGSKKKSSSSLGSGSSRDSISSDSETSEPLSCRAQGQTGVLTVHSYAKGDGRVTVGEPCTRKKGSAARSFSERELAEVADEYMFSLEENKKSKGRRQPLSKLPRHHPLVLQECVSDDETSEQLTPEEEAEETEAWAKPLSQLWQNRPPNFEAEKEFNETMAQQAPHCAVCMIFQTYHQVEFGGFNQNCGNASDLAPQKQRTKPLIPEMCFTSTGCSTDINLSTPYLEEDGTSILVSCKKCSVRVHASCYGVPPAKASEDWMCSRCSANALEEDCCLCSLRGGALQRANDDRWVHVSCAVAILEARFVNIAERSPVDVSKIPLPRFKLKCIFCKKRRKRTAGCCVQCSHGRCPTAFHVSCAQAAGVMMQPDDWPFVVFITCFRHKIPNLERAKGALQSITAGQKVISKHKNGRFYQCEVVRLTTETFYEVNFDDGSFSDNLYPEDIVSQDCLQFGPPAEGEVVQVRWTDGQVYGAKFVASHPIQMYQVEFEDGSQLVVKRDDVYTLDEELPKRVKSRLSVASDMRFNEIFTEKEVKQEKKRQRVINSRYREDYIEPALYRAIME
# This is a selection; strong and weak results do not stand in their true shares. Records with an inconclusive call do not appear. Active and inactive are the calls of the source. The call rests on the fitted dose curve; in most records, active means well fitted inhibition curve with a large enough effect; inconclusive means small, poorly fitted or top-dose-only effect; inactive means no such curve, though single readings can be large or run the other way.
# Molecular target: Lysine-specific demethylase 4A (Homo sapiens) (UniProt O75164)
# Experiment: qHTS Assay for Inhibitors of JMJD2A-Tudor Domain; further: nearly all actives have a fitted effect of over 50% in size
# Details: AlphaScreen JMJD2A-Tudor / H3K4me3 peptide binding; series mostly up to 114 µM; activity change, negative = inhibition: at the top concentration
# On the % scale 0 is the no-effect control and ±100 the full control effect; potency means the concentration at half of the fitted maximal effect.
Compound,"activity change, negative = inhibition",Potency
O=P(Nc1nccs1)(c1ccccc1)c1ccccc1,inactive: -2.15%,
CC(C)C(=O)NC(Sc1ccccc1)C(Cl)(Cl)Cl (stereo unspecified),inactive: 0%,
O=[N+]([O-])c1ncn(CCn2cnc([N+](=O)[O-])n2)n1,inactive: 2.21% [at 11.4 µM],
O=[N+]([O-])c1ccc(O)c(/C=N/Nc2ccc([N+](=O)[O-])cc2[N+](=O)[O-])c1,,active: 44.7 µM
O=[As](O)(c1ccccc1)c1ccc(O)cc1,inactive: -5.86%,
C(Cc1nn[nH]n1)Cc1nn[nH]n1,,active: 39.8 µM
Nc1ccc([As](=O)(O)c2ccc([N+](=O)[O-])cc2)cc1,inactive: -7.59%,
O=C(OC1CN2CCC1CC2)c1cccc(Cl)c1 (stereo unspecified),inactive: -8.89%,
CN(C)C1(CNC(=O)c2ccc(Cl)c(S(N)(=O)=O)c2)CCCCC1,inactive: 4.41%,
O=P(Nc1ccccn1)(c1ccc(Br)cc1)c1ccc(Br)cc1,inactive: -14.7%,
O=P(Nc1nc2ccccc2s1)(c1ccccc1)c1ccccc1,inactive: -23.4%,
C[C@H]1OP(=O)(Oc2ccccc2)[C@H](O)[C@H](O)[C@H]1N=[N+]=[N-] (stereo partly specified),inactive: -6.47%,
COC(=O)c1cc2c(s1)N=C(c1ccccc1)N(C)P2(=O)N1CCOCC1 (stereo unspecified),inactive: 12.3%,
Cc1ccc(OP(=O)(Nc2ccccn2)Oc2ccc(C)cc2)cc1,inactive: -18% [at 11.4 µM],
CC(=O)NC(SC(=S)N(CC(C)C)CC(C)C)C(Cl)(Cl)Cl (stereo unspecified),inactive: -9.93%,
O=C(OC1CN2CCC1CC2)c1ccccc1 (stereo unspecified),inactive: -11.9%,

Compound,"activity change, negative = inhibition",Potency
CCC(=O)N1C2C3N(C(=O)CC)C1C1N(C(=O)CC)C(C(N1C(=O)CC)N3C(=O)CC)N2C(=O)CC,inactive: 6.71%,
CC(NC(=O)COC(=O)C(O)(c1ccccc1)c1ccccc1)c1ccccc1 (stereo unspecified),inactive: 1.95%,
Cc1ccccc1OP(=O)(Nc1ccccn1)Oc1ccccc1C,inactive: -8.33%,
CN(C)C(=O)Oc1noc2ccccc12,inactive: -6.9%,
O=C(NC1CCS(=O)(=O)C1)NP(=S)(Oc1ccccc1)Oc1ccccc1 (stereo unspecified),inactive: -6.01% [at 11.4 µM],
CCNC(=S)/N=C(\N)N[N+](=O)[O-],inactive: -1.42%,
Cc1ccc(NP(=O)(Oc2cccc(C)c2)Oc2cccc(C)c2)nc1,inactive: 2.85%,
O=P1(N(CCCl)CCCl)OCCC2CCCCN21 (stereo unspecified),inactive: 1.38%,
CC(=O)c1ccc(N2CC2c2ccncc2)cc1 (stereo unspecified),inactive: -1.4%,
COC(=O)C1(C)COP(=O)(NCc2ccccc2)OC1 (stereo unspecified),inactive: -9.72%,
Cc1ccccc1CN(C)C(=O)COC(=O)C(O)(c1ccccc1)c1ccccc1,inactive: -8.33%,
C[C@H]1OP(=O)(Oc2ccccc2)C[C@@H]2O[C@@H]21 (stereo partly specified),inactive: 0%,
C[C@@H]1C=CCP(=O)(Oc2ccccc2)O1 (stereo partly specified),inactive: -28%,
CC(=O)Nc1ccc([As](=O)(O)O)c(O)c1,inactive: 13%,
CC(=O)Nc1ccc(Oc2c([N+](=O)[O-])cc([N+](=O)[O-])cc2[N+](=O)[O-])cc1,inactive: -20.3%,
